The list is not random: actives were taken first. Their share in the collection is about 2.2%.
SIRT5 inh = blocks human SIRT5 desuccinylation of peptide; Q9NXA8; Purified SirT5, succinyl-peptide AMC, trypsin-coupled fluorescence; inhibition, % at 15 µM; 330,000 compounds, 1.1% hits; in the data active = inhibition above about 15%
ERp5 inh = ERp5 (human) disulfide isomerase inhibition; inhibition, % at 9.99 µM; ERp5 insulin aggregation, absorbance 650 nm, 90 min; AID 651711; 350,000 compounds, 0.05% hits; Q15084;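 active = mean replicate inhibition above about 25%, with every replicate also reaching it, limit read from the data, passing the limit was not always enough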
Yeast UUG start = modulators of yeast start codon fidelity, primary screen, whole organism, S. cerevisiae, single point, plate reader; activity score, % at 18.7 µM; actives 0.13% (n = 350,000); S. cerevisiae UUG-firefly luciferase reporter, luminescence/redox ratio;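 active = replicate mean at a twofold rise or more, about +100% in these data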;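 also: firefly luciferase made from a UUG start codon reports start codon fidelity; reporter light over untreated wells divided by growth signal over untreated wells; some hits fall short of that in this replicate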
FGF22 binding = binders of recombinant human FGF22 by thermal shift | Q9HCT0 | SYPRO orange fluorescence; percent of sucrose octasulfate shift, DMSO zero | activity (Tm shift, normalised), % at 9.99 µM | 340,000 compounds, 1.5% hits | AID 651658;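 active = mean Tm shift, scaled 0 neutral to 100 positive control, at about 1.3% or above, every replicate too, limit read from the data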
S100A4 MyoIIA = inhibitors of human S100A4 binding to myosin IIA peptide. S100A4/TAMRA-MyoIIA peptide fluorescence polarization. inhibition, % at 10.7 µM. 360,000 compounds, 0.14% hits;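 active = mean inhibition of at least 70% across replicates, with every replicate also reaching that level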
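incubation = readout 5 min after mixing, signal stable up to 60 min | system = S100A4 monomer protein | buffer or medium = HEPES pH 7.2 with CaCl2, KCl, NaCl, DTT, Triton | benchmarks = neutral control DMSO, positive control TFP | also added = fluorescent myosin IIA peptide, 5 nM | compound dosing = one concentration per compound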
PDI turbidity = PDI (human) enzyme inhibition. 350,000 compounds, 0.052% hits. AID 588391. inhibition, % at 10 µM. PDI insulin aggregation turbidity, A650, 90 min;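 active = mean inhibition across replicates of 30% or more, whatever share of single replicates reach that level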
The depositor's hits bear a star.

How did COc1ccc2c3c([nH]c2c1)[C@H](CO)N(C(=O)Nc1c(C)noc1C)CC31CCN(CC2CCCC2)CC1 do in these assays?
SIRT5 inh: 3; ERp5 inh: 0; FGF22 binding: 0; S100A4 MyoIIA: -1

Results for O=C(c1ccc2c(c1)OCO2)N1CC(=O)N2[C@@H](CO)[C@@H](c3ccc(C#CCC4CCCC4)cc3)[C@@H]2C1 ?
SIRT5 inh: 11; ERp5 inh: 3; FGF22 binding: -1; S100A4 MyoIIA: 5

What do the screens show for `CC(C)C#Cc1ccc([C@@H]2[C@H](CO)N3C(=O)CN(C(=O)NC4CCCC4)C[C@@H]23)cc1`?
SIRT5 inh: 25*; ERp5 inh: 5; FGF22 binding: 0; S100A4 MyoIIA: -38

Results for O=C(c1ccc2c(c1)OCO2)N1CC(=O)N2[C@H](CO)[C@H](c3ccc(C#CCC4CCCC4)cc3)[C@@H]2C1 ?
SIRT5 inh: 26*; ERp5 inh: -3; FGF22 binding: -1; S100A4 MyoIIA: 5

What do the screens show for `CC(C)C#Cc1ccc([C@@H]2[C@@H](CO)N3C(=O)CN(C(=O)c4ccc5c(c4)OCO5)C[C@H]23)cc1`?
SIRT5 inh: 20*; ERp5 inh: 0; S100A4 MyoIIA: 12

What do the screens show for `Cc1ccc(S(=O)(=O)Nc2ccc3c(c2)C(=O)N([C@H](C)CO)C[C@H](C)[C@@H](CN(C)C(=O)Nc2ccccc2)O3)cc1`?
SIRT5 inh: -4; ERp5 inh: 3; Yeast UUG start: 2; FGF22 binding: 0; S100A4 MyoIIA: 17

Results for CSc1ncccc1C(=O)Nc1nc2ccc(Oc3ccccc3)cc2s1 ?
SIRT5 inh: -6; ERp5 inh: 12; FGF22 binding: 43*; S100A4 MyoIIA: 0; PDI turbidity: -5

Results for COc1ccc2nc(NC(=O)c3ccccc3C(=O)O)sc2c1 ?
SIRT5 inh: 0; ERp5 inh: 4; Yeast UUG start: -8; FGF22 binding: 0; S100A4 MyoIIA: 53; PDI turbidity: -12

How did CCC(=O)Oc1ccc(C(=O)Nc2cccc(C(=O)NCC(C)C)c2)cc1 do in these assays?
SIRT5 inh: -1; ERp5 inh: 0; FGF22 binding: 43*; S100A4 MyoIIA: 3; PDI turbidity: -7

What do the screens show for `C[C@@H]1CN([C@@H](C)CO)S(=O)(=O)c2ccc(C#C[C@@H](C)O)cc2O[C@@H]1CN(C)CC1CCOCC1`?
Yeast UUG start: -7; FGF22 binding: 0

How did O=C(NC1CCCCC1)C1c2ccccc2OCC(=O)N1Cc1ccco1 (stereo unspecified) do in these assays?
SIRT5 inh: 16*; ERp5 inh: 1; FGF22 binding: 0; S100A4 MyoIIA: 32

What do the screens show for `O=C(NC1CCCC1)C1c2ccccc2OCC(=O)N1Cc1ccccn1` (stereo unspecified)?
SIRT5 inh: -4; ERp5 inh: -7; FGF22 binding: 0; S100A4 MyoIIA: -2

How did CC(C)(C)c1nnc2sc(SCC(=O)N3CCc4ccccc43)nn2c1=O do in these assays?
SIRT5 inh: 1; ERp5 inh: 1; Yeast UUG start: -20; FGF22 binding: 43*; S100A4 MyoIIA: -2; PDI turbidity: -5

What do the screens show for `COc1ccc(C(=O)Nc2ccc3c(c2)OC[C@@H](C)NC[C@H](C)[C@@H](OC)CN(C)C3=O)cc1`?
SIRT5 inh: -6; ERp5 inh: 4; Yeast UUG start: -11; FGF22 binding: 0; S100A4 MyoIIA: 8

Results for Cc1cc(NS(=O)(=O)c2ccc(NC(=O)COc3ccc(Br)cc3)cc2)nc(C)n1 ?
SIRT5 inh: 33*; ERp5 inh: 1; Yeast UUG start: -10; FGF22 binding: 0; S100A4 MyoIIA: -4; PDI turbidity: 8

Results for Cc1ccc(S(=O)(=O)Nc2ccc(S(=O)(=O)Nc3cc(C)nc(C)n3)cc2)cc1 ?
SIRT5 inh: 0; ERp5 inh: -5; Yeast UUG start: 1; FGF22 binding: 43*; S100A4 MyoIIA: -5; PDI turbidity: -6

How did C[C@H](CO)N1C[C@H](C)[C@H](CN(C)CC2CC2)OCCCC[C@H](C)Oc2ccc(NC(=O)Nc3ccc(C(F)(F)F)cc3)cc2C1=O do in these assays?
ERp5 inh: 7; FGF22 binding: -1; S100A4 MyoIIA: 0

Results for CN1C(=O)c2cc(NC(=O)c3ccc(F)c(F)c3)ccc2OC[C@@H]2O[C@@H](CC(=O)N3CCOCC3)CC[C@H]21 ?
SIRT5 inh: 1; ERp5 inh: 6; FGF22 binding: 0; S100A4 MyoIIA: 0

What do the screens show for `CN(Cc1ccccc1)C(=O)NC1CCCCC1`?
Yeast UUG start: -13; PDI turbidity: 0

Results for CC(C)(Sc1ccc(CCN(CCCCC2CCCCC2)C(=O)NC2CCCCC2)cc1)C(=O)O ?
SIRT5 inh: 26*; ERp5 inh: 6; Yeast UUG start: -1; FGF22 binding: 0; S100A4 MyoIIA: 0; PDI turbidity: 5

How did CO[C@H]1CN(C)C(=O)c2ccc(NC(=O)NC(C)C)cc2OC[C@H](C)N(CC2CC2)C[C@H]1C do in these assays?
SIRT5 inh: 2; ERp5 inh: 0; Yeast UUG start: -5; FGF22 binding: 0; S100A4 MyoIIA: 0

What do the screens show for `CN(C)C(=O)[C@H]1[C@H](CO)[C@H]2Cn3c(ccc(-c4ccc(F)cc4)c3=O)[C@@H]1N2CCc1ccccc1`?
SIRT5 inh: 22*; ERp5 inh: 8; FGF22 binding: 0; S100A4 MyoIIA: 19

What do the screens show for `CN1[C@H](C(=O)NC2CCCCC2)[C@@H](CO)[C@@H]2Cn3c(ccc(-c4cccc(F)c4)c3=O)[C@@H]21`?
SIRT5 inh: 16*; ERp5 inh: -7; Yeast UUG start: 13; S100A4 MyoIIA: 4

How did CCN1[C@@H]2c3ccc(-c4ccccc4)c(=O)n3C[C@@H]2[C@@H](CO)[C@@H]1C(=O)NCc1ccccc1 do in these assays?
SIRT5 inh: 22*; ERp5 inh: -1; Yeast UUG start: 4; FGF22 binding: 0; S100A4 MyoIIA: 1

How did O=C(NC1CCCC1)[C@H]1[C@H](CO)[C@H]2Cn3c(ccc(-c4ccncc4)c3=O)[C@H]2N1CCc1ccccc1 do in these assays?
SIRT5 inh: 19*; ERp5 inh: -4; FGF22 binding: 0; S100A4 MyoIIA: 4

Results for Cc1ccccc1S(=O)(=O)N(C)C[C@H]1OCc2ccccc2-c2ccccc2C(=O)N([C@H](C)CO)C[C@H]1C ?
SIRT5 inh: 3; ERp5 inh: 12; FGF22 binding: 0; S100A4 MyoIIA: -25

What do the screens show for `C[C@H]1CCCCO[C@@H](CN(C)CC2CCCCC2)[C@@H](C)CN([C@@H](C)CO)C(=O)c2cc(NC(=O)Cc3ccccc3)ccc2O1`?
SIRT5 inh: -1; ERp5 inh: 5; Yeast UUG start: 12; S100A4 MyoIIA: 0

Taken from above (3 entries):
How did O=C(NC1CCCC1)[C@H]1[C@H](CO)[C@H]2Cn3c(ccc(-c4ccncc4)c3=O)[C@H]2N1CCc1ccccc1 do in these assays?
SIRT5 inh: 19*; ERp5 inh: -4; FGF22 binding: 0; S100A4 MyoIIA: 4

Results for Cc1ccccc1S(=O)(=O)N(C)C[C@H]1OCc2ccccc2-c2ccccc2C(=O)N([C@H](C)CO)C[C@H]1C ?
SIRT5 inh: 3; ERp5 inh: 12; FGF22 binding: 0; S100A4 MyoIIA: -25

What do the screens show for `C[C@H]1CCCCO[C@@H](CN(C)CC2CCCCC2)[C@@H](C)CN([C@@H](C)CO)C(=O)c2cc(NC(=O)Cc3ccccc3)ccc2O1`?
SIRT5 inh: -1; ERp5 inh: 5; Yeast UUG start: 12; S100A4 MyoIIA: 0
